From patent US9243301B2 (priority 2006, dated 2016)

Sequences of proteins named here, by UniProt entry; tags and fusion partners are left off. A change or cut given only in a name is not applied to a line headed by its entry.
UniProt P35370: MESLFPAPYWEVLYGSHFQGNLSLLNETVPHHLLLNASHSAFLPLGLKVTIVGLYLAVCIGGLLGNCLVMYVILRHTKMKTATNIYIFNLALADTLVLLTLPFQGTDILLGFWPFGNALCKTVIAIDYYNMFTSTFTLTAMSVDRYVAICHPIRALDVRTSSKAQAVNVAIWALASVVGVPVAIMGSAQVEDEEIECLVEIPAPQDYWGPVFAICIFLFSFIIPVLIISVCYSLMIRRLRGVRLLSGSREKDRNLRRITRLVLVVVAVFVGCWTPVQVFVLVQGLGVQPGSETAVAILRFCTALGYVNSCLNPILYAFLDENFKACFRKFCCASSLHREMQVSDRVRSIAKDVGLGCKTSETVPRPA

Target: ORL1 receptor (Rattus norvegicus, UniProt P35370)
Format: binding

In the case of Nociceptin [R14K15] 1-17 [“variant” TM], the “increase in binding ability for a nociceptive sensory afferent vis-à-vis natural nociceptin” value is reported as 3- to 10 fold.
